{"sequences": {"note": "Sequences of proteins named here, by UniProt entry; tags and fusion partners are left off. A change or cut given only in a name is not applied to a line headed by its entry.", "UniProt P05186": "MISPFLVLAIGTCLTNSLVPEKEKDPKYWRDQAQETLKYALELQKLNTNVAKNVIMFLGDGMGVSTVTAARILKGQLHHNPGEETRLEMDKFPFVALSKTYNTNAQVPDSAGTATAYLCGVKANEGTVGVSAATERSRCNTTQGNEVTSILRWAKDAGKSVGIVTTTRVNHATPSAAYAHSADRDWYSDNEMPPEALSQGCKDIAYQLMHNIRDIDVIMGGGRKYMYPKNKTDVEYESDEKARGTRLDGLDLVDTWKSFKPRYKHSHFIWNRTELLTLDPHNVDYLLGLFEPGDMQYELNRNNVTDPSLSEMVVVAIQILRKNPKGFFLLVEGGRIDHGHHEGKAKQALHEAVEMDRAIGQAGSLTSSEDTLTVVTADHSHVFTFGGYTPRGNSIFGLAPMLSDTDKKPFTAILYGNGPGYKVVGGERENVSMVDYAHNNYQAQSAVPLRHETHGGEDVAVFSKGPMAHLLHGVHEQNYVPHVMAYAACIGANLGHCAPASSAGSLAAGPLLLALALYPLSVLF"}, "source": "PubChem BioAssay AID1135", "about": "(Sanford-Burnham Center for Chemical Genomics, 2008)", "note": "The list shows a part of the results, in another mix than the full data. The source made the active and inactive calls.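 How the source made its calls: active means over 50% inhibition of tissue-nonspecific alkaline phosphatase at 20 µM in the single-dose screen; inactive means the rest.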"}
{"molecular_target": "Alkaline phosphatase, tissue-nonspecific isozyme (Homo sapiens) (UniProt P05186)", "experiment": "human TNAP enzyme inhibitors, primary screen, biochemical, luminescent, high phosphate acceptor level, uHTS (AID 1135);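 further: plate controls were DMSO wells for no effect and EDTA-quenched wells as full inhibition for full effect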", "settings": "purified TNAP, CDP-star luminescence, 1 M DEA; at 20 µM; hits give high values"}
{"compound": "O=[N+]([O-])c1ccc2c(c1)nnn2O", "inhibition": "inactive: -6.9%"}
{"compound": "CCOP1(=S)c2c(C)nn(CCC#N)c2N=C(c2ccc(F)cc2)N1C", "note": "(stereo not drawn)", "inhibition": "inactive: -2.3%"}
{"compound": "O=P(Nc1nccs1)(c1ccccc1)c1nc2ccccc2s1", "note": "(stereo not drawn)", "inhibition": "inactive: -0.1%"}
{"compound": "O=P(Nc1nccs1)(Oc1ccccc1)Oc1ccccc1", "inhibition": "inactive: -3%"}
{"compound": "CCOP1(=S)c2c(C)nn(CCC#N)c2N=C(c2ccccc2F)N1C", "note": "(stereo not drawn)", "inhibition": "inactive: -5.4%"}
{"compound": "CCOP(=O)(Nc1cccc2ccccc12)OCC", "inhibition": "inactive: 0%"}
{"compound": "COc1cc(C2NCCC3(OCCO3)C2(C)C)cc(OC)c1OC", "note": "(stereo not drawn)", "inhibition": "inactive: -3.7%"}
{"compound": "Cc1ccc(NCCc2c([N+](=O)[O-])cc([N+](=O)[O-])cc2[N+](=O)[O-])cc1", "inhibition": "inactive: 20%"}
{"compound": "Cc1cccc(OCC(=O)OC2CN3CCC2CC3)c1", "note": "(stereo not drawn)", "inhibition": "inactive: -3.8%"}
{"compound": "COc1cc(C(=O)NCC2(N3CCOCC3)CCCCC2)cc(Cl)c1OC(C)C", "inhibition": "inactive: -2.2%"}
{"compound": "CC(C)/C=N\\N=C(\\N)N[N+](=O)[O-]", "inhibition": "inactive: -2.5%"}
{"compound": "CN(C(=O)Cc1ccc(Cl)c(Cl)c1)[C@@H]1CCCC[C@H]1N1CCCC1", "inhibition": "inactive: -7.6%"}
{"compound": "Clc1n[nH]nc1-c1nn[nH][15n]1", "inhibition": "inactive: -4.2%"}
{"compound": "O=P1(Nc2ccccn2)COc2ccccc2OC1", "inhibition": "inactive: 0.6%"}
{"compound": "O=P1(Nc2ccc(Br)cn2)COc2ccccc2OC1", "inhibition": "inactive: -6.5%"}
{"compound": "Cc1ccc(OCC(=O)OC2CN3CCC2CC3)cc1", "note": "(stereo not drawn)", "inhibition": "inactive: 0.3%"}
{"compound": "O=P1(Nc2ncccn2)COc2ccccc2OC1", "inhibition": "inactive: 1.9%"}
{"compound": "CN(C)C1(CNC(=O)c2ccc(S(C)(=O)=O)cc2)CCCCC1", "inhibition": "inactive: -7.7%"}
{"compound": "CC1CCC(C(C)C)C(OP(=O)(Nc2ccccn2)c2ccccc2)C1", "note": "(stereo not drawn)", "inhibition": "inactive: -5.3%"}
{"compound": "Cc1nn(-c2ccccc2)c2c1P(=O)(N1CCOCC1)N(C)C(c1ccccc1)=N2", "note": "(stereo not drawn)", "inhibition": "inactive: -4.8%"}
{"compound": "O=P(Nc1ccccn1)(c1cccc2ccccc12)c1cccc2ccccc12", "inhibition": "inactive: -3.8%"}
{"compound": "Cc1cc(SC(NC=O)C(Cl)(Cl)Cl)ncn1", "note": "(stereo not drawn)", "inhibition": "inactive: -1.9%"}
{"compound": "Cc1cc(SC(NC(=O)c2ccccc2)C(Cl)(Cl)Cl)nc(C(C)C)n1", "note": "(stereo not drawn)", "inhibition": "inactive: 0.1%"}
{"compound": "CCC(C)N(CC(C)C)C(=S)SC(NC(C)=O)C(Cl)(Cl)Cl", "note": "(stereo not drawn)", "inhibition": "inactive: -6.5%"}
{"compound": "O=C(COc1ccccc1)OC1CN2CCC1CC2", "note": "(stereo not drawn)", "inhibition": "inactive: -3.1%"}
{"compound": "COP1(=S)c2c(C)nn(CCC#N)c2N=C(c2ccc(F)cc2)N1C", "note": "(stereo not drawn)", "inhibition": "inactive: -8.6%"}
{"compound": "COc1ccc(N/C(=N/P(=O)(N2CCOCC2)N2CCOCC2)N2CCOCC2)cc1", "inhibition": "inactive: -1%"}
{"compound": "COc1ccc2nc(NP(=O)(c3ccccc3)c3ccccc3)sc2c1", "inhibition": "inactive: -7.1%"}
{"compound": "Cc1cc(=O)[nH]c(N[N+](=O)[O-])n1", "inhibition": "inactive: 1.6%"}
{"compound": "O=C(OC1CN2CCC1CC2)C12CC3CC(CC(C3)C1)C2", "note": "(stereo not drawn)", "inhibition": "inactive: -6.6%"}
{"compound": "O=[N+]([O-])c1cc([N+](=O)[O-])c(-c2ccn[nH]2)s1", "inhibition": "inactive: 6.8%"}
{"compound": "CCN(CC)C(=S)SC(NC=O)C(Cl)(Cl)Cl", "note": "(stereo not drawn)", "inhibition": "inactive: -2.9%"}
{"compound": "CC(C)NC(=O)NP(=O)(Oc1ccccc1)Oc1ccccc1", "inhibition": "inactive: 0.5%"}
{"compound": "ClCCSc1nnc(-c2cccnc2)o1", "inhibition": "inactive: 0.3%"}
{"compound": "Cc1ccc2nc3c(c(C)c2c1)CC(C(Cl)Cl)S3", "note": "(stereo not drawn)", "inhibition": "inactive: -4%"}
{"compound": "CCN(N=Nc1nonc1N)c1nonc1N", "inhibition": "inactive: -4.8%"}
{"compound": "CCOP(=O)(Nc1ccccc1)OCC", "inhibition": "inactive: 0%"}
{"compound": "Cc1cc(SC(NC(=O)c2ccc(F)cc2)C(Cl)(Cl)Cl)ncn1", "note": "(stereo not drawn)", "inhibition": "inactive: -1.8%"}
{"compound": "CC(C)CC(=O)NC(Sc1ccc(Cl)cc1)C(Cl)(Cl)Cl", "note": "(stereo not drawn)", "inhibition": "inactive: 0.8%"}
{"compound": "Cc1c2non([O-])c-2c(C)[n+](=O)[n+]1[O-]", "inhibition": "inactive: 3.6%"}
{"compound": "O=C(NC(Sc1ccncn1)C(Cl)(Cl)Cl)c1ccccc1", "note": "(stereo not drawn)", "inhibition": "inactive: 0%"}
{"compound": "Oc1ccccc1CNc1ccccn1", "inhibition": "inactive: -3.8%"}
{"compound": "COc1ccccc1OP(=O)(Nc1ccc(C)cn1)Oc1ccccc1OC", "inhibition": "inactive: -4.5%"}
{"compound": "Clc1ccc(Cl)c(NC2=NCC(CBr)S2)c1", "note": "(stereo not drawn)", "inhibition": "inactive: -4.8%"}
{"compound": "CN1CCCC(OC(=O)C(c2ccccc2)c2ccccc2)C1", "note": "(stereo not drawn)", "inhibition": "inactive: -0.3%"}
{"compound": "NC(=O)c1cc([N+](=O)[O-])cc([N+](=O)[O-])c1N", "inhibition": "inactive: 1.8%"}
{"compound": "Cc1ccc(N/C(=N/P(=O)(N2CCOCC2)N2CCOCC2)N2CCOCC2)cc1", "inhibition": "inactive: -3%"}
{"compound": "CN(C)C(=O)OCCc1n(C)cc[n+]1C", "inhibition": "inactive: 0.2%"}
{"compound": "CC(C)=N/N=C(\\N)N[N+](=O)[O-]", "inhibition": "inactive: -5.6%"}
{"compound": "CC1CCN(C(=O)Oc2c(Cl)cc(Cl)c3cccnc23)CC1", "inhibition": "inactive: -7.9%"}
{"compound": "CCN(/C(=N/P(=O)(N1CCOCC1)N1CCOCC1)N1CCOCC1)c1ccc(OC)cc1", "inhibition": "inactive: -2.5%"}
{"compound": "O=[N+]([O-])c1cccc2n[nH]nc12", "inhibition": "inactive: -3.2%"}
{"compound": "CC(=O)N1C2C3N(C(C)=O)C1C1N(C(C)=O)C(C(N1C(C)=O)N3C(C)=O)N2C(C)=O", "inhibition": "inactive: -2%"}
{"compound": "CCc1nc2c(n1)c1c(non1O)c1c2no[n+]1[O-]", "inhibition": "inactive: -6.7%"}
{"compound": "O=[N+]([O-])c1cc([N+](=O)[O-])c(CCNc2ccccc2)c([N+](=O)[O-])c1", "inhibition": "inactive: 12.5%"}
{"compound": "Cc1ccc(NP(=O)(Oc2ccccc2)Oc2ccccc2)nc1", "inhibition": "inactive: -1.5%"}
{"compound": "COc1ccc(C2=NCC(CBr)S2)cc1", "note": "(stereo not drawn)", "inhibition": "inactive: 0.4%"}
{"compound": "O=[N+]([O-])c1ncn(CCn2ncnc2[N+](=O)[O-])n1", "inhibition": "inactive: 1.8%"}
{"compound": "C(Cc1nn[nH]n1)Cc1nn[nH]n1", "inhibition": "inactive: -7.2%"}
{"compound": "O=C(OC1CN2CCC1CC2)c1cccc(Cl)c1", "note": "(stereo not drawn)", "inhibition": "inactive: -4.3%"}
{"compound": "CC(=O)NC(SC(=S)N(C)C)C(Cl)(Cl)Cl", "note": "(stereo not drawn)", "inhibition": "inactive: 2.1%"}
{"compound": "O=P(Nc1ccccn1)(c1ccc(Br)cc1)c1ccc(Br)cc1", "inhibition": "inactive: 0%"}
{"compound": "c1nnnn1CCn1cnnn1", "inhibition": "inactive: -4.6%"}
{"compound": "CC(C)C(=O)NC(Sc1ccccc1)C(Cl)(Cl)Cl", "note": "(stereo not drawn)", "inhibition": "inactive: -1.6%"}
{"compound": "O=P(Nc1nccs1)(c1ccccc1)c1ccccc1", "inhibition": "inactive: 2.9%"}
{"compound": "CC(=O)Nc1ccc(Oc2c([N+](=O)[O-])cc([N+](=O)[O-])cc2[N+](=O)[O-])cc1", "inhibition": "inactive: 0.5%"}
{"compound": "CC(C)(C)C(=O)NC(Sc1ccccc1)C(Cl)(Cl)Cl", "note": "(stereo not drawn)", "inhibition": "inactive: -1.2%"}
{"compound": "CCOc1ccc(C2=NCC(CBr)S2)cc1", "note": "(stereo not drawn)", "inhibition": "inactive: -1.1%"}
{"compound": "O=P1(Nc2nc3ccc(Cl)cc3s2)COc2ccccc2O1", "note": "(stereo not drawn)", "inhibition": "inactive: -0.7%"}
{"compound": "O=c1c2cc([N+](=O)[O-])ccc2[nH]c2c([N+](=O)[O-])cc([N+](=O)[O-])cc12", "inhibition": "inactive: 31.4%"}
{"compound": "CC(=O)NC(SC(=S)N(CC(C)C)CC(C)C)C(Cl)(Cl)Cl", "note": "(stereo not drawn)", "inhibition": "inactive: -2.2%"}
{"compound": "Cc1ccc(OP(=O)(Nc2ccccn2)Oc2ccc(C)cc2)cc1", "inhibition": "inactive: 1.1%"}
{"compound": "COC(=O)c1cc2c(s1)N=C(c1ccccc1)N(C)P2(=O)N1CCOCC1", "note": "(stereo not drawn)", "inhibition": "inactive: -3.3%"}
{"compound": "CCC(=O)N1C2C3N(C(=O)CC)C1C1N(C(=O)CC)C(C(N1C(=O)CC)N3C(=O)CC)N2C(=O)CC", "inhibition": "inactive: -2.2%"}
{"compound": "CCNC(=S)/N=C(\\N)N[N+](=O)[O-]", "inhibition": "inactive: -1.5%"}
{"compound": "O=C(NC1CCS(=O)(=O)C1)NP(=S)(Oc1ccccc1)Oc1ccccc1", "note": "(stereo not drawn)", "inhibition": "inactive: -3.2%"}
{"compound": "CCOC(=O)NC(Sc1ccccc1)C(Cl)(Cl)Cl", "note": "(stereo not drawn)", "inhibition": "inactive: 0.3%"}
{"compound": "c1ccc(-c2nn[nH]n2)c(-c2nn[nH]n2)c1", "inhibition": "inactive: -2.4%"}
